Values of other authors, collected in patent US20100292209A1, “METHODS FOR IDENTIFYING COMPOUNDS THAT MODULATE NEUROTROPHIC FACTOR SIGNALING” (Massachusetts Institute of Technology, priority 2007, published 2010).

Molecular target: ErbB1 (Homo sapiens, UniProt P00533)
Details: cited from earlier work

Compound: COc1cc2ncnc(Nc3cccc(Cl)c3)c2cc1OC [AG1478, 4-(3-Chloroanilino-6,7-dimethoxy)-quinazoline]
- selectivity ErbB1 over ErbB2: selectively inhibit ErbB1 over ErbB2
